Source: patent publication US9227852B2, “Apparatus, systems, and methods for water treatment” (McWong Environmental Technology, priority 2008, dated 2016)

Columns and labels:
[1] = Comparison of treatment methods for removing geosmin from water (Table 4, FIG. 6); conditions: feed rate 2 mg/L
[2] = Comparison of treatment methods for removing MIB from water (Table 4, FIG. 6); conditions: feed rate 2 mg/L
MS2 coliphage = conditions: conventional chlorine treatment, minimum CT=450 mg-min/L; cited from earlier work

Chlorine
Removal (%) Geosmin [1]: 45% | Removal (%) MIB [2]: 33% | contact time typically required to achieve similar levels of disinfection (MS2 coliphage): 90 s
